A word on the Kd: it is the constant that tells how readily two partners part at equilibrium. A high value points to a looser complex.

Amino acid sequences for entries named in this document (tags omitted). Residues count along the entry.
UniProt Q91ZX7, 20-4545 limits assumed: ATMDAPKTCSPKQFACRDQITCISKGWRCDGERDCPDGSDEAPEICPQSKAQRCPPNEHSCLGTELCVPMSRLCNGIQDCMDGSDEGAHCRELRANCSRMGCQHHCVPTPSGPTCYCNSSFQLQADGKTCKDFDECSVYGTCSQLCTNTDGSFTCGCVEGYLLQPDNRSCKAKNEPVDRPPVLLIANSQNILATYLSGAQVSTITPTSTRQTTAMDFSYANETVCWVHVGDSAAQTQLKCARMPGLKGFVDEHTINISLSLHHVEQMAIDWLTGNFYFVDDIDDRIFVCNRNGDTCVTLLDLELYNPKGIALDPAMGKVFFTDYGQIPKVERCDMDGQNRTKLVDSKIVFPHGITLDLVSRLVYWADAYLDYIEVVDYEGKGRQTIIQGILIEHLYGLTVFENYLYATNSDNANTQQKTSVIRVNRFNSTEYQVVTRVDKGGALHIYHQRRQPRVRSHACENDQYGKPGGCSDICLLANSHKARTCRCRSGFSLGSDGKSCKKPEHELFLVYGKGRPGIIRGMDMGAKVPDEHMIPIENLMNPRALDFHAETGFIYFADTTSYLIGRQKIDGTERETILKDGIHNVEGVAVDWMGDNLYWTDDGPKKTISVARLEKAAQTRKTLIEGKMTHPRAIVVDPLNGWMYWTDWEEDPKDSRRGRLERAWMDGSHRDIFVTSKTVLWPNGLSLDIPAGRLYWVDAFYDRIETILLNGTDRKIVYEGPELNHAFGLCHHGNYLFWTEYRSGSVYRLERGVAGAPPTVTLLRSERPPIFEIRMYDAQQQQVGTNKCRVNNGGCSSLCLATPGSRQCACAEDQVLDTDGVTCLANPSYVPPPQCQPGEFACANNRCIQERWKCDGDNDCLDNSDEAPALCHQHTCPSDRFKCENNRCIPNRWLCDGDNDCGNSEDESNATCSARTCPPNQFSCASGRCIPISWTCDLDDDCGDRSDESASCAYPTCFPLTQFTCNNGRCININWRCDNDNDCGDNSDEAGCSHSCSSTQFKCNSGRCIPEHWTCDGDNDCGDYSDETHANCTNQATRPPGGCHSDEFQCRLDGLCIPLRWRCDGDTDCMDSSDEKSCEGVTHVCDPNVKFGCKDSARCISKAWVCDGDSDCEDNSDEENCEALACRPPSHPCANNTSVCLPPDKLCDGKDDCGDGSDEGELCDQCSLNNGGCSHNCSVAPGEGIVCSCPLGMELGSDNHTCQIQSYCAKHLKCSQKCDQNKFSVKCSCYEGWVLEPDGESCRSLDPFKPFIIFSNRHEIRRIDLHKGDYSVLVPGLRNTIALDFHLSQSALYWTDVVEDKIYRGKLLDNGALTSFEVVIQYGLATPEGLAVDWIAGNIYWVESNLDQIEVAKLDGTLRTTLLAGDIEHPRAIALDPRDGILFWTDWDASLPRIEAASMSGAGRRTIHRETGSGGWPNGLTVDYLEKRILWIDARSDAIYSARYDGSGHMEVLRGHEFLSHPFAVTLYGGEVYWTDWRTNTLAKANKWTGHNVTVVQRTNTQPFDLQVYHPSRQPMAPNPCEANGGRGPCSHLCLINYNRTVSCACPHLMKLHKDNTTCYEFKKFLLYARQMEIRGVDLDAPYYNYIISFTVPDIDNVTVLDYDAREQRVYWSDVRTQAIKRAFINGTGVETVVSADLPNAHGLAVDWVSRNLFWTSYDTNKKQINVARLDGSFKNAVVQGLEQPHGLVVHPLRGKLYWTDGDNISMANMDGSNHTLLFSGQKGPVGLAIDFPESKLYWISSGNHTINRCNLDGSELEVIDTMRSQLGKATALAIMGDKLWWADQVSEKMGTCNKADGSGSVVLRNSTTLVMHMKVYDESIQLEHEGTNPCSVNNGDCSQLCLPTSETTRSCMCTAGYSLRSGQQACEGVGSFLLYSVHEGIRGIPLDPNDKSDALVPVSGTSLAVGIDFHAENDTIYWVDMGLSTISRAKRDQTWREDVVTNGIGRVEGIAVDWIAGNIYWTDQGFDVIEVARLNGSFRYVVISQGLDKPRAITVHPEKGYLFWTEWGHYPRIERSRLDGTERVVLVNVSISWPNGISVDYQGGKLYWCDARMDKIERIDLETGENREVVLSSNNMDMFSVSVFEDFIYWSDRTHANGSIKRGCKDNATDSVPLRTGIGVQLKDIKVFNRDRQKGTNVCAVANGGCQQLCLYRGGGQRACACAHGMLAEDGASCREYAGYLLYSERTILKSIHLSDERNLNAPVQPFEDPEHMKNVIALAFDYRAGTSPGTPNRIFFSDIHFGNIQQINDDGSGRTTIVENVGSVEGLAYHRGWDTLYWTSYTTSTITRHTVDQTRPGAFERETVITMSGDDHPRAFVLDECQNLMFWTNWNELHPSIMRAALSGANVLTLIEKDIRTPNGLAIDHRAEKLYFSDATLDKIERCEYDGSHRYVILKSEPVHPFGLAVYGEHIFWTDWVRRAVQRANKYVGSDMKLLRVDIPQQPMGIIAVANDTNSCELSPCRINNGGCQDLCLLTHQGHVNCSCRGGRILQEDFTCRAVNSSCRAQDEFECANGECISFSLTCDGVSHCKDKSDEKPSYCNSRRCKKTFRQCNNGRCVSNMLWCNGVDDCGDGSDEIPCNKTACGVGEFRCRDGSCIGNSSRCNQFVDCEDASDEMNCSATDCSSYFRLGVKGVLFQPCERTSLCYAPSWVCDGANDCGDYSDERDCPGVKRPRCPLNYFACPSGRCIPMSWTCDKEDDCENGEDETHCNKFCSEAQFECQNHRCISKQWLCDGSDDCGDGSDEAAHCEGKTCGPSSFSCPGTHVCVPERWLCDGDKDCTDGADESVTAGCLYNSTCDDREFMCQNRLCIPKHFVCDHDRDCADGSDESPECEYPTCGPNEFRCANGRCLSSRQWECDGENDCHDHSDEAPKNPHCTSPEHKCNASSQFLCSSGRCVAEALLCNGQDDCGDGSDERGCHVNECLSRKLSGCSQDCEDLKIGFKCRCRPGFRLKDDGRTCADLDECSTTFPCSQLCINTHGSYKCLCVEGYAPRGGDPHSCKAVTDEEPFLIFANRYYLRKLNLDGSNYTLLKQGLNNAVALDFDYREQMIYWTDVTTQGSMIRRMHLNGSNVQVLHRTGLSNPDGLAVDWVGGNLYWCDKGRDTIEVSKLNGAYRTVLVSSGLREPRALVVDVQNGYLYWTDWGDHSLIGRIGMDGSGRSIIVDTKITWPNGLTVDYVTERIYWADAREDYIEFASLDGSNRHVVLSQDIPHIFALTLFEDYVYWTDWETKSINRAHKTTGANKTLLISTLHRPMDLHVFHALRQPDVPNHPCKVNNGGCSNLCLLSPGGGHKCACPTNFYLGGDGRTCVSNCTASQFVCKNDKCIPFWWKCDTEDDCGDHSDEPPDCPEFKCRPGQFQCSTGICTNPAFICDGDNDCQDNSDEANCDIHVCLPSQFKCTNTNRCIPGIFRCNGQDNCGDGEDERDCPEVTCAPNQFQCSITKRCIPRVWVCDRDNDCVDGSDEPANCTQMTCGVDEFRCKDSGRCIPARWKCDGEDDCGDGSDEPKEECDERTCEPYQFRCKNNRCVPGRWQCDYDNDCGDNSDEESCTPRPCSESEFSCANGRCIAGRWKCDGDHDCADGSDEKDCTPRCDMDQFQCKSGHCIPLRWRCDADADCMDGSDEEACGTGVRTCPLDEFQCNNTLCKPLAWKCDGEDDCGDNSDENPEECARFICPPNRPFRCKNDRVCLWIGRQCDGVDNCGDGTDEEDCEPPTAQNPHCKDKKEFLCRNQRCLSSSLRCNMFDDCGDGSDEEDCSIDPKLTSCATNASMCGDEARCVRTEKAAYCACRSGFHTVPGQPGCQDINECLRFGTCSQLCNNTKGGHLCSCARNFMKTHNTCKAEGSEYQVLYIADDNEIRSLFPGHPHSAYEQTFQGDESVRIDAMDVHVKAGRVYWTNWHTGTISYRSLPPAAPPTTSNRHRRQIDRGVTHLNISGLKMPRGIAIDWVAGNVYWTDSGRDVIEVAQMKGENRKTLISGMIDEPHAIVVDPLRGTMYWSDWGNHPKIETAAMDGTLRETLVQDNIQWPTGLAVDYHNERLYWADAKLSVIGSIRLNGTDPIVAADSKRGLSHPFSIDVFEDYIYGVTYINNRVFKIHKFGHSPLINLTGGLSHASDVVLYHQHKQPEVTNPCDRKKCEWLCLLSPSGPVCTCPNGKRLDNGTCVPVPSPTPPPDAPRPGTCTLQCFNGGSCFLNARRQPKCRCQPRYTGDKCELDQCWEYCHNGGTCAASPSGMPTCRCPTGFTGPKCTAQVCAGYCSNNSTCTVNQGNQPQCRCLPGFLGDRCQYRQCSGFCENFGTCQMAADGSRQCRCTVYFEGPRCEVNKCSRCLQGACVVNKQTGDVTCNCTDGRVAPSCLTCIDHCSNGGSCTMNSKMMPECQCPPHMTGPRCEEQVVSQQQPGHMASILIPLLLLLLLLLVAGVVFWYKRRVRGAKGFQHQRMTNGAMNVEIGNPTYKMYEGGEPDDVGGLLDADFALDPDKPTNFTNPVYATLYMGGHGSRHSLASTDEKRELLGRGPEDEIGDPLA

Among the data in US7247611 are Kd values, retold here.

For this test, the target named is α2-macroglobulin receptor/low density lipoprotein-related receptor protein on LM-TK- cells (UniProt Q91ZX7). Put plainly: 125I-scuPA on LM-TK- cells at 4 C, Scatchard analysis, with peptide EEIIMD.

The substance “scuPA in the presence of peptide EEIIMD (from UniProt P00749 21-431) (other; radiolabeled with 125I (iodobeads) in the binding assays)” yielded a Kd of 35 nM.
